{"source": "ChEMBL document CHEMBL1955766", "about": "“Structure guided development of novel thymidine mimetics targeting Pseudomonas aeruginosa thymidylate kinase: from hit to lead generation” (J Med Chem, 2012)", "target": "T1, Thymidylate kinase (Homo sapiens, UniProt P23919)", "T1 sequence (P23919 whole entry)": "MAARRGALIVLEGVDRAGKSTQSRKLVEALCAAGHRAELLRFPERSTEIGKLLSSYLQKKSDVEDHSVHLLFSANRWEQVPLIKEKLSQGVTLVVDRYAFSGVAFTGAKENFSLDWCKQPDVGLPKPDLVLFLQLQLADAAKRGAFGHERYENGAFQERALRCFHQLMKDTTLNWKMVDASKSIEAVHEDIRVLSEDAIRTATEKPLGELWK", "test": "Inhibition of human thymidylate kinase using dTMP as substrate after 30 mins by fluorescence analysis", "data": [{"compound": "O=C(O)c1cc(SSc2ccc([N+](=O)[O-])c(C(=O)O)c2)ccc1[N+](=O)[O-]", "values": [{"measurement": "IC50", "value": 1530, "unit": "nM"}]}]}
